# Results: patent publication US20140037798A1, “LIQUID NUTRITIONAL PRODUCTS COMPRISING METAL AMINO ACID CHELATES” (ABBOTT LABORATORIES, priority 2011, published 2014)
# Conditions: cocoa powder 0.80% (w/w), pH 6.8 HEPES, cocoa powder:iron 40:1, 99° C. thirty minutes, 0.45 μm filtrate
substance,measurement,value
Ferric pyrophosphate [reference compound],"Absorbance, Filtrate v. Blank, 535 nm",667 mAU
same,"Absorbance, Filtrate v. Blank, 600 nm",369 mAU
same,"Absorbance, Filtrate v. Blank, 700 nm",118 mAU
